From patent US4740501A (priority 1985, dated 1988)
pIC50: −log10 of the molar value.

Columns and labels:
[1] = tested on: L1210 leukemia; test: L-PAM cross-resistance test: viability after pulse or 24 hour exposure; format: cell-based, mice
[2] = tested on: L1210/L-PAM leukemia; test: as above; format: cell-based, mice
[3] = tested on: P388/L-PAM leukemia; test: as above; format: cell-based, mice
[4] = tested on: L1210/L-PAM leukemia cells; test: Tumorigenicity of in vitro treated leukemia cells in BDF1 recipients; format: in vivo, BDF1 mice; conditions: for MST: L1210/L-PAM, control 13
[5] = tested on: MJY-alpha monolayers; test: Tumor cell layer viability under viral harvest conditions; format: cell-based; conditions: 15.0 uM; 48 hour
[6] = tested on: L1210 leukemia cells; test: PTT.119 induced resistance test, long-term low dose culture; conditions: L1210-T1 at 37.5 nM for 25 passages
[7] = 3.75 uM, 30 or 60 min exposure, within 4 to 5 days
[8] = 7.5 uM, 30 or 60 min exposure, 6 to 7 days
[9] = read-out: T.C.D.50, treated 24 hours
[10] = treated 24 hours, cultures contained 0.2-3% viable cells at 24 hours
[11] = complete cytolysis at concentration similar to L1210

With L-phenyl-alanine mustard the “elimination of viable population” value ([1]; 15 uM, 30 or 60 minutes, within 5 days of treatment) was “could not eliminate all viable cells”, the “percentage of viable cells” value ([1]; L1210, 3.75 uM, 30 or 60 min exposure, within 4 to 5 days) was 80-90% and the “surviving fraction at end of examination period” value (“surviving fraction at end” below) ([1]; L1210, 7.5 uM, 30 or 60 min exposure, 6 to 7 days) was 60-80%. The T.C.D.100 ([1]; L1210, treated 24 hours, cultures contained 0.2-3% viable cells at 24 hours) was 75.0 µM, the pIC50 ([1]; read-out: T.C.D.50, L1210, treated 24 hours) was 4.65 and the “percentage of viable cells” value [2, 7] was 80-90%. For the same compound, the “surviving fraction at end” value [2, 8] was 3-20%, the population remaining viable ([2]; 163 uM, 24 hours) was “approximately 0.2%” and the pIC50 [2, 9] was 5.42. The T.C.D.100 [2, 10] was 163.0 µM, the “percentage of viable cells” value [3, 7] was 80-90% and the “surviving fraction at end” value [3, 8] was 7-40%. It also gave a population remaining viable ([3]; 163 uM, 24 hours) of 3%, a pIC50 [3, 9] of 4.96 and a T.C.D.100 [3, 10] of 163.0 µM. The “tumorigenicity of L1210/L-PAM cells” value ([4]; 15 uM for 60 min only) was “diminution of tumorigenicity”, the “MST” value ([4]; 7.5 uM, 30 min) was 15 days and the “MST” value ([4]; 7.5 uM, 60 min, TF = Tumor Free) was 15 days. The “MST” value ([4]; 15 uM, 15 min) was 14 days, the “MST” value ([4]; 15 uM, 30 min) was 16 days and the “outcome of mice receiving treated L1210/L-PAM cells” value ([4]; either dose (7.5 or 15 uM) for 15 or 30 min) was “died of tumor”. The “Viability compared to control cultures (%)” value [5] was 96.9%.
With `CCOC(=O)[C@H](CCSC)NC(=O)[C@H](Cc1cccc(N(CCCl)CCCl)c1)NC(=O)[C@@H](N)Cc1ccc(F)cc1.Cl` [PTT.119, 3-(p-fluorophenyl)-L-alanyl-3-[m-bis(2-chloroethyl)aminophenyl]-L-alanyl-L-methionine ethyl ester hydrochloride] the “cross-resistance to the tripeptide” value [2, 11] was “lack of any detectable cross-resistance”, the “cross-resistance to the tripeptide” value [3, 11] was “lack of any detectable cross-resistance” and the “induction of resistant L1210 cells” value [6] was “no resistant L1210 cells have been induced”.
